Molecular target: human TDP1 (Homo sapiens, UniProt Q9NUW8)
Assay: Continuous FRET assay, IC50 determination of inhibitors of TDP1
Assay type: biochemical

Chains of the proteins cited; added tags and fusions are not shown.
UniProt Q9NUW8, whole entry: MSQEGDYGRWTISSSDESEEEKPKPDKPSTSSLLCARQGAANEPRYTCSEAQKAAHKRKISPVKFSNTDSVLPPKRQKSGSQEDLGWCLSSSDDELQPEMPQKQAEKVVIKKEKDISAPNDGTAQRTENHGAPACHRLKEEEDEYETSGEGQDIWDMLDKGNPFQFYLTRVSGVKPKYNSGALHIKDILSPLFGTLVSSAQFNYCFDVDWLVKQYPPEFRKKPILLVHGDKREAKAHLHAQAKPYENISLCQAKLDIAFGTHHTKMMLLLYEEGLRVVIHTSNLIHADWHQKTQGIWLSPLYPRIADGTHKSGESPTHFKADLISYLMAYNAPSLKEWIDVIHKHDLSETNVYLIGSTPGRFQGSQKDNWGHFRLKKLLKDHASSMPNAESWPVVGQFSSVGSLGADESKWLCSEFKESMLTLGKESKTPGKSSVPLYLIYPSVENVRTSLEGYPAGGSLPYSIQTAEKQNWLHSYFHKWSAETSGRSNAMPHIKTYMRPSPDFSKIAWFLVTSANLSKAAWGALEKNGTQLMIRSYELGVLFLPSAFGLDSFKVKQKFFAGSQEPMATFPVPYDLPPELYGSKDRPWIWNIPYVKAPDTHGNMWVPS

IC50: 8 ± 1 µM
SMILES: O=C(O)C1=CC(=C(c2ccc(O)c(C(=O)O)c2)c2ccc(O)c(C(=O)O)c2)C=CC1=O [Aurintricarboxylic acid, reference compound]

From publication PMC7900901 (SLAS discovery : advancing life sciences R & D, 2017)
